Reference: US6566493B1, “Peptidomimetics containing 6-peptidylamino-1-naphthalenesulfonamide moieties” (dated 2003)

Amino acid sequences for entries named in this document (tags omitted). Residues count along the entry.
UniProt P04070, 43-197 partner limits assumed: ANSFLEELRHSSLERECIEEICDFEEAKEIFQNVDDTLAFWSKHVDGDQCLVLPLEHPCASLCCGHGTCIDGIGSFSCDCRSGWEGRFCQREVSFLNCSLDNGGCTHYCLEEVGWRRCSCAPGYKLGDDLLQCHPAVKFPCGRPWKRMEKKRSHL
UniProt P04070, 212-461 limits assumed: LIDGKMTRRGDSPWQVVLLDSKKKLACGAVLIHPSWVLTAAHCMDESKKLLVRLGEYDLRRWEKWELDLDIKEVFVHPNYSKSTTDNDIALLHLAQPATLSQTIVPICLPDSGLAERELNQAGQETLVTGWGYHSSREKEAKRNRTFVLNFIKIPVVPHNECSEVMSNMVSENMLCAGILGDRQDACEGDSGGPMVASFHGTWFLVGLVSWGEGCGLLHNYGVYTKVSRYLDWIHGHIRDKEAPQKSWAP
UniProt P00742, 41-179 partner limits assumed: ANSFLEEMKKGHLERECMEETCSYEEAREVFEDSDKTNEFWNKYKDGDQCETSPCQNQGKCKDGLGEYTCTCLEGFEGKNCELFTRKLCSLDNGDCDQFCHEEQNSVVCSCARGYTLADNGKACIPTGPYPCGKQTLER
UniProt P00742, 235-488 limits assumed: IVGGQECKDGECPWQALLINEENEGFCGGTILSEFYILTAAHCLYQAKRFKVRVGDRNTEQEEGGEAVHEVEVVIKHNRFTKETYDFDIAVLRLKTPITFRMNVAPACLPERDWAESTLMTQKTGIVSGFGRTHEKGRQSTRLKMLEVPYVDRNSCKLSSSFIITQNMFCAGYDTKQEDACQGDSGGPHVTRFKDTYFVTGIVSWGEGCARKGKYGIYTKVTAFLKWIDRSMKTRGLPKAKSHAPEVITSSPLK

Tests used:
[1] = target: APC (Homo sapiens, UniProt P04070); test: Inhibition constant assay (APC, Spectrozyme TH hydrolysis); settings: for Ki: read-out: Ki:APC, 5 nM APC, Spectrozyme TH 100, 200 and 600 μM
[2] = target: factor Xa (Homo sapiens, UniProt P00742); test: Inhibition constant, factor Xa; settings: read-out: Ki:Xa
[3] = tested on: thrombin generation; test: Tissue factor pathway to thrombin, no coagulation inhibitors (Example 9); settings: 40 μM compound; protein C and TFPI absent; FIG. 8
[4] = tested on: thrombin generation; test: Tissue factor pathway to thrombin, TFPI present, factor VIII absent (Example 7); settings: 40 μM compound, 2.5 nM TFPI present, FIG. 6
[5] = tested on: thrombin generation; test: Tissue factor pathway to thrombin, APC pathway and TFPI present, factor VIII absent (Example 8); settings: 40 μM compound or 20 μM each, PC pathway and TFPI present, FIG. 7
[6] = tested on: thrombin generation; test: Tissue factor pathway to thrombin, APC pathway present, factor VIII absent (Example 4); settings: 40 μM compound, PC, Tm present, FIG. 3
[7] = tested on: thrombin generation; test: Tissue factor pathway to thrombin, reconstituted model, protein C pathway present (Example 3); settings: 40 μM compound; 0.5 pM factor VIIa; PC and Tm present; FIG. 2
[8] = target: IIa (Homo sapiens, UniProt P00734); test: Inhibition constant, IIa (thrombin); settings: read-out: Ki:IIa

C[C@@H](O)[C@H](NC(=O)[C@H](CCCCNC(=O)OCc1ccccc1)NC(=O)[C@H](CCCCN)NC(=O)OCc1ccccc1)C(=O)N[C@@H](CCCCNC(=N)N)C(=O)Nc1ccc2c(S(=O)(=O)N[C@@H](CCCCNC(=O)OCc3ccccc3)C(=O)N[C@@H](CCCCNC(=O)OCc3ccccc3)C(=O)OCc3ccccc3)cccc2c1
Ki [1]: 1.5 µM
Ki [2]: 230 µM

C[C@@H](O)[C@H](NC(=O)[C@H](CCCCN)NC(=O)[C@H](CCCCN)NC(=O)OCc1ccccc1)C(=O)N[C@@H](CCCCNC(=N)N)C(=O)Nc1ccc2cc(S(=O)(=O)N[C@@H](CCCCNC(=O)OCc3ccccc3)C(=O)N[C@@H](CCCCNC(=O)OCc3ccccc3)C(=O)OCc3ccccc3)ccc2c1
Ki ratio for factor Xa/APC [1]: 570

C[C@@H](O)[C@H](NC(=O)[C@H](CCCCN)NC(=O)[C@H](CCCCN)NC(=O)OCc1ccccc1)C(=O)N[C@@H](CCCNC(=N)N)CC(=O)Nc1ccc2c(S(=O)(=O)N[C@@H](CCCCNC(=O)OCc3ccccc3)C(=O)N[C@@H](CCCCNC(=O)OCc3ccccc3)C(=O)OCc3ccccc3)cccc2c1
Ki [1]: 2.3 µM

C[C@@H](O)[C@H](NC(=O)[C@H](CCCCN)NC(=O)[C@@H](N)CCCCN)C(=O)N[C@@H](CCCCNC(=N)N)C(=O)Nc1ccc2cc(S(=O)(=O)N[C@@H](CCCCNC(=O)OCc3ccccc3)C(=O)N[C@@H](CCCCNC(=O)OCc3ccccc3)C(=O)OCc3ccccc3)ccc2c1
lag phase of thrombin generation [3]: decrease the lag phase of thrombin generation
maximum rate of prothrombin activation [3]: increase the maximum rate of prothrombin activation
compensation of absence of factor VIII, thrombin generation [4]: compensate for the absence of factor VIII
time to reach explosive thrombin generation phase ([4]; vs control): faster
compensation of absence of factor VIII, thrombin generation [5]: completely compensated
compensation of absence of factor VIII, thrombin generation [6]: completely compensated
maximum rate of thrombin generation [6]: significantly higher than that in control experiment or in the presence of compound 9
onset of explosive phase of thrombin generation ([6]; vs control with factor VIII): earlier than in the control experiment
effect on thrombin generation in presence of PC pathway [7]: completely compensates for the presence of PC pathway

C[C@@H](O)[C@H](NC(=O)[C@H](CCCCN)NC(=O)[C@H](CCCCN)NC(=O)OCc1ccccc1)C(=O)N[C@H](CCCNC(=N)N)C(=O)Nc1ccc2c(S(=O)(=O)N[C@@H](CCCCNC(=O)OCc3ccccc3)C(=O)N[C@@H](CCCCNC(=O)OCc3ccccc3)C(=O)OCc3ccccc3)cccc2c1
Ki [1]: 1.1 µM
Ki [8]: > 5000 µM
Ki [2]: 280 µM

CCOC(=O)[C@H](CCCNC(=N)N)NC(=O)[C@H](CCC(N)=O)NS(=O)(=O)c1ccc2cc(NC(=O)[C@H](CCCCNC(=N)N)NC(=O)[C@H](CCCNC(=N)N)NC(=O)[C@H](CC(=O)OC)NC(=O)[C@H](CC(C)C)NC(=O)OC(C)(C)C)ccc2c1
Ki [1]: 160 µM
